Results taken from publication PMC3501490, “An Investigation of Hierachical Protein Recruitment to the Inhibitory Platelet Receptor, G6B-b” (PLoS ONE, 2012).

Molecular target: FcRγ dual phosphopeptide
Experiment: pull-down; direct pull down assay: peptide on Streptactin beads incubated with equimolar purified SH2 domains (100 pM [sic] each for the tandem SH2 domains), 250 µl PBS, 30 minutes, room temperature; bound and unbound fractions on Coomassie-stained gels

Work on “Syk tandem (N+C) SH2 domains (domain or fragment)” yielded a percent bound of 95%.
